Target: Sodium-dependent dopamine transporter (Homo sapiens, UniProt Q01959)
Assay: Displacement of [3H]WIN-35428 from human DAT
Method in brief: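 Competitive radioligand binding at human transporters. The tritiated standard ligand matched each transporter: WIN-35,428 for DAT, citalopram for SERT, and nisoxetine for NET. IC50 is the concentration giving 50% inhibition of radioligand binding, reported as mean ± SEM of three independent experiments.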

Sequences of proteins named here, by UniProt entry; tags and fusion partners are left off.
UniProt Q01959, whole entry: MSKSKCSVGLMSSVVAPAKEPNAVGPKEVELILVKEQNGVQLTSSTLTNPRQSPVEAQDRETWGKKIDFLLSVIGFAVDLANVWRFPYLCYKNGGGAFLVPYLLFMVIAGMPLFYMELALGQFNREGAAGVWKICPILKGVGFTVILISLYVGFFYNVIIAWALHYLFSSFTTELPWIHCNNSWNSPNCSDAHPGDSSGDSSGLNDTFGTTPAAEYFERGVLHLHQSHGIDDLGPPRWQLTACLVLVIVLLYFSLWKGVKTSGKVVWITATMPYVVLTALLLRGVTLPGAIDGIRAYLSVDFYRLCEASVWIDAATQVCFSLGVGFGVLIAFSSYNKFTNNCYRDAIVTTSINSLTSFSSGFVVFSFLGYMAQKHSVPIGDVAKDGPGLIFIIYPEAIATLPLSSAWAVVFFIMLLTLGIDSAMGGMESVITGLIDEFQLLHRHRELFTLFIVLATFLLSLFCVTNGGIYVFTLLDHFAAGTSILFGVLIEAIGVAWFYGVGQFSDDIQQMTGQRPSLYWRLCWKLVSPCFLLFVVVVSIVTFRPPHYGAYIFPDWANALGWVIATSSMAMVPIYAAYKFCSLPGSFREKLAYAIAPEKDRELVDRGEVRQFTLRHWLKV

SMILES: CN1C2C=C(c3ccccc3-c3ccccc3)CC1CC2 (stereo unspecified)
- IC50: 9.24 µM

From ChEMBL document CHEMBL1141860, “Synthesis and monoamine transporter affinity of 3-aryl substituted trop-2-enes” (Bioorg Med Chem Lett, 2005)
